Molecular target: Delta-type opioid receptor (Homo sapiens, UniProt P41143)
Test: Binding affinity against delta opiate receptor using [3H]DPDPE

The chains behind the UniProt entries cited, without tags or fusion partners.
UniProt P41143, whole entry, looked up: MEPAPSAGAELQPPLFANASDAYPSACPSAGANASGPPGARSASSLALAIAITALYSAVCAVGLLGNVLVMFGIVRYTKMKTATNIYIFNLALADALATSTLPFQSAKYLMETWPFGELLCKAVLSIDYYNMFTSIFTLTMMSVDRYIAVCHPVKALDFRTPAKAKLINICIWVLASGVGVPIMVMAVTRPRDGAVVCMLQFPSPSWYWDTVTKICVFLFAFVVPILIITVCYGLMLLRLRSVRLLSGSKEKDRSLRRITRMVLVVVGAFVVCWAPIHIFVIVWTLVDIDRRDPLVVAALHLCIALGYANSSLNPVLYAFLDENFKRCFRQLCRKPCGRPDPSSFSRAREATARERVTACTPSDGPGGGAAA

Fc1ccc(C(OCCN2CCN(C/C=C/c3ccccc3)CC2)c2ccc(F)cc2)cc1 gave an IC50 greater than 10 µM.
Molecule Fc1ccc(C(OCCN2CCN(CCCc3ccccc3)CC2)c2ccc(F)cc2)cc1 has an IC50 greater than 10 µM.

Reference: BindingDB's records for 11585444
